This is a selection; strong and weak results do not stand in their true shares. Activity calls are given as the source filed them.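 Rule for the calls: active = calcium response B-score plate-corrected fluorescence ratio at least 3 library SD, with starting fluorescence B-score inside 5 SD; inactive = the rest.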
The molecules below were run against Mas-related G-protein coupled receptor member X1 (Homo sapiens) (UniProt Q96LB2) (assay: agonists of human MrgX1 receptor, primary screen, HEK293 cells, Fluo-4 calcium flux (AID 588627)). Conditions: Fluo-4 calcium fluorescence, agonist mode, at 10 µM.
In short: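 Test system: Stable human MrgX1 HEK293 cell line | Schedule: Overnight plating before 1 h dye loading | Read-out basis: Baseline-normalised fluorescence change ratio, B-scored | Detection: Kinetic calcium dye fluorescence, Fluo-4 NW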

Sequences of proteins named here, by UniProt entry; tags and fusion partners are left off.
UniProt Q96LB2, whole entry: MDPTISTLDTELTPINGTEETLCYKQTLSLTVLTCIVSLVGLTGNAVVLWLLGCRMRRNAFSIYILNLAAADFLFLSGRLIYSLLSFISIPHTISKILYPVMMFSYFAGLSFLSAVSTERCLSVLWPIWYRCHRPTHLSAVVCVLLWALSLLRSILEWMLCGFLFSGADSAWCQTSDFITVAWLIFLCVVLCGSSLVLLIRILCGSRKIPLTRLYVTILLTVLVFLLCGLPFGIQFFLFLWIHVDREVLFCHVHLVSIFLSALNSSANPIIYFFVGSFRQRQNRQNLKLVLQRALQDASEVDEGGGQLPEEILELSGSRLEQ

SMILES	outcome
CN1CCC(Nc2cccc(F)c2)CC1	inactive
CCCOc1ccc(C(=O)NCC2(N(C)C)CCCCC2)cc1OC	inactive
COc1ccc(CN(CCCl)CCCl)cc1Cl	inactive
CN(C)c1cccc(C(=O)NCC2(N3CCCCC3)CCCCC2)c1	inactive
CC(C)c1ccc(NC2CCN(C(=O)OC(C)(C)C)CC2)cc1	inactive
COc1cc(OC)c(C(=O)NCC2(N(C)C)CCCCC2)cc1OC	inactive
O=C(NCC1(N2CCOCC2)CCCCC1)c1cc2ccccc2o1	inactive
O=C(NCC1(N2CCCCC2)CCCCC1)c1ccc(Cl)nc1	inactive
Cc1cc(C)cc(N(C(=O)c2ccccc2)C2CCN(C(=O)OC(C)(C)C)CC2)c1	inactive
CCOC(=O)N1CCC(Nc2ccc(OC)cc2)CC1	inactive
O=C(OC1CN2CCC1CC2)C1c2ccccc2Oc2ccccc21 (stereo not given)	inactive
N#CC1(Nc2ccccc2)CCN(Cc2ccccc2)CC1	inactive
O=C(NCC1(N2CCCCC2)CCCCC1)c1ccc(=O)[nH]c1	inactive
O=C(NCC1(N2CCCCC2)CCCCC1)c1cccs1	inactive
COc1ccc(C(=O)NCC2(N3CCCCC3)CCCCC2)cc1	inactive
CC(C)(C)OC(=O)N1CCC(N(C(=O)c2ccccc2)c2ccc(F)cc2)CC1	inactive
COc1ccc(C(=O)NCC2(N3CCCCC3)CCCCC2)c(OC)c1OC	inactive
CSc1ccccc1C(=O)NCC1(N2CCCCC2)CCCCC1	inactive
COc1cc(C(=O)NCC2(N(C)C)CCCCC2)ccc1OC(F)F	inactive
CCOC(=O)N1CCC(Nc2cccc(C)c2)CC1	inactive
Cc1ccc(OCC(C)C)c(CN(CCCl)CCCl)c1	inactive
CCOc1ccc(C)cc1CN(CCCl)CCCl	inactive
O=C(NCC1(N2CCCCC2)CCCCC1)c1ccc(F)cc1	inactive
CCOC(=O)N1CCC(Nc2ccc(F)cc2)CC1	inactive
COc1ccc(NC2CCN(CCc3ccccc3)CC2)c(OC)c1	inactive

Reference: PubChem BioAssay AID588627 (Johns Hopkins Ion Channel Center, 2011)
